Measured values reported in US10144730B2, “Inhibitors of c-Jun-N-terminal kinase (JNK)” (Dana-Farber Cancer Institute, Inc., priority 2011, dated 2018).

Test system: c-Jun phosphorylation
Test: LanthaScreen TR-FRET cell assay for c-Jun phosphorylation in HeLa cells
Assay type: cell-based
Settings: HeLa and A375 formats, tested in parallel

- IC50's for c-Jun phosphorylation in both cellular assay formats: micromolar range
SMILES: N#Cc1c(NC(=O)c2cccc3ccccc23)sc2c1CCCC2
